The source of these data is patent US10966937B2, “Compositions and methods for delivery of polyunsaturated fatty acid derivatives and analogs” (Cytometix, Inc., priority 2015, dated 2021).

Data set [1] deals with acute pain tail flick assay. The experiment in a line: Acute pain tail flick assay, CMX-020 and Remifentanil alone or co-administered. Conditions: co-administered with Remifentanil intravenously over 10 minutes; 50%, 75% and 90% inhibition of tail flick response.
Data set [2] is described as follows: Phase 1 clinical trial of oral CMX-020, pharmacokinetics. As to conditions: human, oral 50 mg and 100 mg, after 5 days of BID dosing.

`CCCCCC(=O)N(CC/C=C\C/C=C\C/C=C\CCCC(=O)NC1CC1)C(C)C` [CMX-020]: in data set [1], the “analgesic effect of the combinational therapy (isobologram)” value is reported as “greater than a simple additive effect”. The “time with therapeutic levels (PK levels above 40 ng/ml)” value in data set [2] lay within 4 to 8 h.
